From US7438931B2, “Methods and compositions for the treatment of angiogenic diseases” (The Regents of The University of Michigan, priority 1998, dated 2008) come the findings set out here.

The nature of one data set: Phase I trial: toxicity. It is filed as in vivo, human. To be noted: added modality during long-term TM. The source says:
Six patients were to be enrolled at each dose level. After 4 patients were enrolled at level I, if one patient experienced dose-limiting toxicity (DLT) (defined as Hct<80% of baseline), 2 more patients were enrolled at level I. If no DLT was observed, patients were enrolled at the next dose level. Treatment was allowed to continue beyond induction of target copper deficiency, if the patients experienced a partial or complete clinical response or achieved clinical stable disease by the following definitions. Complete response is defined as the disappearance of all clinical and laboratory signs and symptoms of active disease. Partial response is defined as a 50% or greater reduction in the size of measurable lesions defined by the sum of the products of the longest perpendicular diameters of the lesions, with no new lesions or lesions increasing in size. […]
Complete blood counts, liver and renal function tests, urinalyses, and Cp level (by the oxidase method) were performed weekly for 16 weeks, then bi-weekly. […] Toxicity was evaluated using the National Cancer Institute Common Toxicity Criteria (Table 3). […]

A further data set deals with metastatic solid tumors. The data set can be described thus: Phase I trial: clinical and radiologic response of metastatic cancer. The settings on record: TM plus IFN-α 500,000 units subcutaneously twice a day and radiotherapy. Format: in vivo, human. The source says:
Patients with effusions or bone marrow involvement as the only manifestations of disease, and those who had severe intercurrent illness requiring intensive management or were transfusion dependent, were excluded. […] Other requirements were demonstrable progression of disease in the previous 3 months, after standard treatments such as surgery, chemotherapy, radiotherapy, and/or immunotherapy, or progressive disease after declining conventional treatment modalities.
Six patients were to be enrolled at each dose level. After 4 patients were enrolled at level I, if one patient experienced dose-limiting toxicity (DLT) (defined as Hct<80% of baseline), 2 more patients were enrolled at level I. If no DLT was observed, patients were enrolled at the next dose level. […]
Extent of disease was evaluated at entry, at the point of achievement of copper deficiency, defined as Cp at or below 20% of baseline, and every 10-12 weeks thereafter. […]
Blood flow was measured by ultrasound in select patients with accessible lesions, at the time they became copper deficient, and at variable intervals of 8-16 weeks thereafter. […] The scanning and vascularity quantification techniques were as previously described (Carson et al., 1998; LeCarpentier et al., 1999).

Turning to “IFN-α: interferon-alpha 2 [reference compound]”, the “toxicity of combination with TM” value in “Phase I trial: toxicity” is reported as “without apparent exacerbation of toxicity”. Besides, the “duration of disease stabilization, two angiosarcoma patients” value with metastatic solid tumors is recorded as “over 60 days”.
